Results reported in PubChem BioAssay AID488839 (Broad Institute, 2010).
The list shows a part of the results, in another mix than the full data. Calls of active or inactive are those of the source.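 The calls were made as follows: active = highest replicate inhibition of at least 50% and at least 75% of replicates reaching 50%; inconclusive = only one of the two criteria met; inactive = both criteria failed.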

The chains behind the UniProt entries cited, without tags or fusion partners.
UniProt Q00535, whole entry, looked up: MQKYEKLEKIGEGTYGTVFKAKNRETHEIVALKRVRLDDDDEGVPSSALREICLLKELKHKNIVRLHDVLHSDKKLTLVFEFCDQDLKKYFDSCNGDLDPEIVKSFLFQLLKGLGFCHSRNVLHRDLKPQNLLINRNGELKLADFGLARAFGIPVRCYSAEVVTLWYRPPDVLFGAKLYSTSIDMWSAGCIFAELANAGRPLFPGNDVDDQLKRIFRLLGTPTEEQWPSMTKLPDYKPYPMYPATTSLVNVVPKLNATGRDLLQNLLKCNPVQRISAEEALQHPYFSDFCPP
UniProt Q15078, whole entry, looked up: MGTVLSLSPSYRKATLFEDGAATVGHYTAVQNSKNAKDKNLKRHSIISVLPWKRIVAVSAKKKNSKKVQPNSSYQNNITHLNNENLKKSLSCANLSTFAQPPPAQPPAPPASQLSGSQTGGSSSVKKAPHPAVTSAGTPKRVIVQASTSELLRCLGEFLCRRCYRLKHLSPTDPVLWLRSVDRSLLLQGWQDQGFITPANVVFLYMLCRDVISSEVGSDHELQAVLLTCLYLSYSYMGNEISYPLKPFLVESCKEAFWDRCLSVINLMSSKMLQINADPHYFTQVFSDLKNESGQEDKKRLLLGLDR

Biological target: Cyclin-dependent kinase 5 (Homo sapiens) + Cyclin-dependent kinase 5 activator 1 (Homo sapiens) (UniProt Q00535+Q15078)
Experiment: CDK5/p35 phosphotransfer blockade – biochemical, single concentration, primary screen (AID 488839);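 also: plate controls were DMSO neutral control for no effect and GW8510 at 10 µM for full effect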
Conditions: Recombinant CDK5/p35, ADP-Glo luminescence, 60 min; at 10 µM; active compounds read high

With `CN1CCC(Nc2ccc(F)c(Cl)c2)CC1` as the molecule, how does the inhibition read?
Its inhibition is inactive: -2.96%.

`CCOc1ncccc1C(=O)NCC1(N2CCOCC2)CCCCC1` was tested. Which inhibition did it give?
The inhibition was inactive: 1.48%.

How did the inhibition turn out when `COc1ccc(Cl)cc1C(=O)NCC1(N2CCOCC2)CCCCC1` was run?
The inhibition was inactive: -1.3%.

With `O=C(OC1CN2CCC1CC2)C1c2ccccc2Oc2ccccc21` (stereo not given) as the molecule, how does the inhibition read?
Its inhibition is inactive: 1.35%.

How did the inhibition turn out when `N#CC1(Nc2ccccc2)CCN(Cc2ccccc2)CC1` was run?
The inhibition was inactive: 0.785%.

With `O=C(NCC1(N2CCCCC2)CCCCC1)c1ccc(Cl)s1` as the molecule, how does the inhibition read?
The inhibition was inactive: -0.356%.

With `CCOC(=O)N1CCC(Nc2ccc(OC)cc2)CC1` as the molecule, how does the inhibition read?
Its inhibition is inactive: -2.08%.

With `Cc1cc(C)cc(N(C(=O)c2ccccc2)C2CCN(C(=O)OC(C)(C)C)CC2)c1` as the molecule, how does the inhibition read?
The inhibition was inactive: -0.504%.

Which inhibition does the source give for `O=C(NCC1(N2CCCCC2)CCCCC1)c1ccc(Cl)nc1` here?
Its inhibition is inactive: 0.166%.

Which inhibition does the source give for `O=C(NCC1(N2CCOCC2)CCCCC1)c1cc2ccccc2o1` here?
Its inhibition is inactive: 1.26%.

For `Cc1cccc(NC2(C#N)CCN(Cc3ccccc3)CC2)c1`, which inhibition is on record?
The inhibition was inactive: -1.88%.

With `CSc1ccccc1C(=O)NCC1(N2CCCCC2)CCCCC1` as the molecule, how does the inhibition read?
The inhibition was inactive: -0.422%.

With `COc1ccc(C(=O)NCC2(N3CCCCC3)CCCCC2)c(OC)c1OC` as the molecule, how does the inhibition read?
The inhibition was inactive: 5.49%.

How did the inhibition turn out when `CC(C)(C)OC(=O)N1CCC(N(C(=O)c2ccccc2)c2ccc(F)cc2)CC1` was run?
The inhibition was inactive: 1.21%.

Which inhibition does the source give for `COc1ccc(C(=O)NCC2(N3CCCCC3)CCCCC2)cc1` here?
Its inhibition is inactive: -1.41%.

Which inhibition does the source give for `O=C(NCC1(N2CCCCC2)CCCCC1)c1cccs1` here?
Its inhibition is inactive: -2.52%.

`O=C(NCC1(N2CCCCC2)CCCCC1)c1ccc(=O)[nH]c1` was tested. Which inhibition did it give?
Its inhibition is inactive: -1.02%.

How did the inhibition turn out when `COc1cc(C(=O)NCC2(N(C)C)CCCCC2)ccc1OC(F)F` was run?
The inhibition was inactive: 1.76%.

For `CCOC(=O)N1CCC(Nc2cccc(C)c2)CC1`, which inhibition is on record?
The inhibition was inactive: -0.472%.

Which inhibition does the source give for `CCOC(=O)N1CCC(Nc2ccc(F)cc2)CC1` here?
Its inhibition is inactive: -0.864%.

How did the inhibition turn out when `COc1ccc(NC2CCN(CCc3ccccc3)CC2)c(OC)c1` was run?
Its inhibition is inactive: -0.196%.

For `O=C(NCC1(N2CCCCC2)CCCCC1)c1ccc(F)cc1`, which inhibition is on record?
Its inhibition is inactive: 1.22%.

With `CCCCOc1ccc(C(=O)NCC2(N3CCOCC3)CCCCC2)cc1` as the molecule, how does the inhibition read?
Its inhibition is inactive: -0.87%.

How did the inhibition turn out when `O=P1(N(CCCl)CCCl)SCCCS1` was run?
Its inhibition is inactive: 1.23%.

`O=C1CCN(Cc2ccccc2)CC1` was tested. Which inhibition did it give?
The inhibition was inactive: -0.0792%.

`CCOc1ccc(C)cc1CN(CCCl)CCCl` was tested. Which inhibition did it give?
The inhibition was inactive: -2.34%.

How did the inhibition turn out when `O=C(NCC1(N2CCOCC2)CCCCC1)c1cc(=O)[nH]c2ccccc12` was run?
Its inhibition is inactive: -1.28%.

With `COc1cc(C(=O)NCC2(N3CCCCC3)CCCCC2)ccc1OC(F)F` as the molecule, how does the inhibition read?
The inhibition was inactive: -4.33%.

With `COc1ccc(NC2CCN(C(=O)OC(C)(C)C)CC2)cc1` as the molecule, how does the inhibition read?
The inhibition was inactive: 0.654%.

With `CC(C)c1ccc(C(=O)NCC2(N3CCOCC3)CCCCC2)cc1` as the molecule, how does the inhibition read?
The inhibition was inactive: -1.5%.

Which inhibition does the source give for `CN1CCN(CCOC(=O)C(O)(c2ccccc2)c2ccccc2)CC1` here?
Its inhibition is inactive: 0.393%.

How did the inhibition turn out when `O=C(NCC1(N2CCCCC2)CCCCC1)c1cccc(C(F)(F)F)c1` was run?
Its inhibition is inactive: -2.08%.

For `N#CC1(Nc2ccccc2)CCN(CCc2ccccc2)CC1`, which inhibition is on record?
The inhibition was inactive: -0.94%.

`CCN1CCC(Nc2ccc(Cl)cc2)CC1` was tested. Which inhibition did it give?
The inhibition was inactive: 0.452%.

How did the inhibition turn out when `CSc1ccc(C(=O)NCC2(N3CCOCC3)CCCCC2)cc1` was run?
Its inhibition is inactive: 2.32%.

For `O=C(NCC1(N2CCCCC2)CCCCC1)c1cccc([N+](=O)[O-])c1`, which inhibition is on record?
The inhibition was inactive: 0.38%.

With `O=C(NCC1(N2CCCCC2)CCCCC1)c1ccc(OC(F)F)cc1` as the molecule, how does the inhibition read?
Its inhibition is inactive: 2.49%.

With `CCCOc1ccc(C(=O)NCC2(N(C)C)CCCCC2)cc1OC` as the molecule, how does the inhibition read?
The inhibition was inactive: -1.03%.

`O=C(NCC1(N2CCCCC2)CCCCC1)c1cncc(Br)c1` was tested. Which inhibition did it give?
Its inhibition is inactive: -1.2%.

With `CN1CCC(Nc2cccc(F)c2)CC1` as the molecule, how does the inhibition read?
Its inhibition is inactive: 0.816%.

For `O=C(NCC1(N2CCOCC2)CCCCC1)c1cc(F)c(F)cc1Cl`, which inhibition is on record?
Its inhibition is inactive: 1.7%.

How did the inhibition turn out when `COc1cc(OC)c(C(=O)NCC2(N(C)C)CCCCC2)cc1OC` was run?
Its inhibition is inactive: 1.51%.

How did the inhibition turn out when `CC(C)c1ccc(NC2CCN(C(=O)OC(C)(C)C)CC2)cc1` was run?
Its inhibition is inactive: 0.509%.

`CN(C)c1cccc(C(=O)NCC2(N3CCCCC3)CCCCC2)c1` was tested. Which inhibition did it give?
Its inhibition is inactive: -0.985%.

With `COc1ccc(CN(CCCl)CCCl)cc1Cl` as the molecule, how does the inhibition read?
The inhibition was inactive: 0.393%.
